In US20050065080A1, “Use of leptin in fertility” (priority 2001, published 2005):

Assays:
ADAMTS-1 = ADAMTS-1 expression in cultured pre-ovulatory follicles (quantitative RT-PCR); assay type: cell-based, mouse; conditions: 17 h; leptin 250 ng/ml or hCG 1 IU; normalized to ribosomal protein L19; FIG. 2
Method: Pre-ovulatory follicles were removed cultured and further treated for 17 h in the absence (c) or presence of either leptin (250 ng/ml) or hCG (1 IU). Total RNA was isolated from the follicles and subjected to quantitative RT-PCR with specific primers for two proteases, ADAMTS-1 and Cathepsin L. The PCR products were resolved in agarose gel electrophoresis and scanned. The RNAs levels of ADAMTS-1 were normalized to the RNAs levels of ribosomal protein
To test whether leptin can induce the expression of ADAMTS-1 and cathepsin L by acting directly on the ovary, in vitro experiments were preformed on pre-ovulatory follicles obtained from 21 days old C57BL/6 mice treated with PMSG (3 IU/animal) for 48 h. Pre-ovulatory follicles were removed, cultured and further treated for 17 h in the absence or presence of either leptin (250 ng/ml) or hCG (1 IU). Total RNA was isolated from the follicles and subjected to quantitative RT-PCR using the LightCycler™ (Roche diagnostics). The primers used for the detection of murine ADAMTS-1 transcripts were: […]
The RNAs levels of ADAMTS-1 and cathepsin L detected in agarose gel electrophoresis of the PCR products were normalized to the RNAs levels of murine ribosomal protein L19

progesterone = assay: Serum progesterone radioimmunoassay in ob/ob and C57BL/6 mice; assay type: in vivo, mouse; conditions: PMSG at time 0, agent at 48 h, RIA at 72 h; FIG. 1
Method: Mice were treated with PMSG at time 0 and the indicated agent at 48 h. Progesterone was determined by RIA at 72 h in sera of C57BL/6 mice (grey bars) and of ob/ob mice (open bars).
Leptin induces the GnRH release from the Hypothalamus, which in turn releases FSH and LH from the Pituitary glands (Yu et al. 1997). To test if the follicle development and ovulation induced in the antide-treated C57BL mice and ob/ob mice by leptin is mediated by LH release, serum LH as well as progesterone, which is an LH-induced marker was measured. Measurement of plasma murine LH (mLH) and progesterone were carried out with specific radioimmunoassays. Progesterone was determined in mouse sera by RIA (Kohen 1975). LH was determined in mouse by a specific RIA, obtained trough the National Hormone & Pituitary Program, harbor-UCLA Medical Center (Torrance, California). The levels of mLH were below 0.2 ng/ml in all cases (Table 2). The levels of LH remained low throughout the follicular growth and ovulation in leptin-treated mice. However, it is difficult to detect the LH surge even in positive controls. Therefore, measurement of the LH-induced serum progesterone serve as a more reliable marker of circulating LH.

uterus = assay: Appearance of the uterus in treated mice; assay type: in vivo, mouse; conditions: after PMSG, or PMSG followed by hCG or leptin; leptin: ob/ob mice that ovulated
Text: The difference between hCG and leptin treatment was also noticed in the appearance of the uterus. […] This appearance was clearly observed in PMSG-treated mice (not shown). […] These difference in the uterine physiology and appearance further support the notion that the leptin-induced ovulation is independent of LH activity.

ob/ob mice = assay: Ovulation induction in antide-treated ob/ob mice (oocyte count); assay type: in vivo, mouse
Method: (§1) In the present example, ovulation was studied in ob/ob mice and in prepubertal C57BL/6 mice. All mice were treated with antide to prevent induction of LH by leptin. […] In a second group of mice, hCG was replaced by leptin. Following the various treatments, mice were sacrificed and oocytes were collected from the ampoule at 72 hours from the first injection and counted.
(§2) Control ob/ob mice were injected with PMSG (3 IU/animal, purchased from Tiferet Hacarmel pharmacy, Tel Yizhack, Israel) and after 48 h with hCG, the mimicker of LH (human hCG Gibco, USA 5 IU/animal). Similarly a group of ob/ob mice were injected with PMSG (3 IU/animal) and after 48 h with leptin (2×5 μg/g weight). 24 hours following the hCG or leptin treatment (72 hours from the PMSG treatment) the animals were sacrificed, the ovaries extracted and the formation of corpora lutea, a marker of ovulation, was examined by staining of ovarian sections. Ovulation was monitored by counting oocytes in the oviducts under the microscope.

C57BL/6 mice = assay: Ovulation induction in antide-treated prepubertal C57BL/6 mice (oocyte count); assay type: in vivo, mouse
Method: as §1, §2

[1] = antide-treated, PMSG at 0 h, leptin or hCG at 48 h, oocytes counted at 72 h, range

human chorionic gonadotropin [hCG, reference compound]
induction of ADAMTS-1 RNA (ADAMTS-1): significant induction
serum progesterone (progesterone): increased serum progesterone
uterus distension and hyperemia (uterus): the distension and hyperemia subside
ovulation (oocytes in the oviducts) (ob/ob mice; PMSG then agent at 48 h, summary of Table 1): ovulation was observed
Oocyte count in ob/ob mice (ob/ob mice; [1]): (1-6) oocytes per mouse
mice ovulated, C57BL/6 mice (C57BL/6 mice; antide + PMSG (48 h) then leptin or hCG (24 h)): 3 out of 3 mice
Oocyte count in C57BL/6 mice (C57BL/6 mice; [1]): (12-28)
